Source: patent US10858339B2, “Aryl cyclopropyl-amino-isoquinolinyl amide compounds” (priority 2017, dated 2020)

By UniProt entry, the sequences of proteins in these tests, tags left out.
UniProt O75116, whole entry, species assumed: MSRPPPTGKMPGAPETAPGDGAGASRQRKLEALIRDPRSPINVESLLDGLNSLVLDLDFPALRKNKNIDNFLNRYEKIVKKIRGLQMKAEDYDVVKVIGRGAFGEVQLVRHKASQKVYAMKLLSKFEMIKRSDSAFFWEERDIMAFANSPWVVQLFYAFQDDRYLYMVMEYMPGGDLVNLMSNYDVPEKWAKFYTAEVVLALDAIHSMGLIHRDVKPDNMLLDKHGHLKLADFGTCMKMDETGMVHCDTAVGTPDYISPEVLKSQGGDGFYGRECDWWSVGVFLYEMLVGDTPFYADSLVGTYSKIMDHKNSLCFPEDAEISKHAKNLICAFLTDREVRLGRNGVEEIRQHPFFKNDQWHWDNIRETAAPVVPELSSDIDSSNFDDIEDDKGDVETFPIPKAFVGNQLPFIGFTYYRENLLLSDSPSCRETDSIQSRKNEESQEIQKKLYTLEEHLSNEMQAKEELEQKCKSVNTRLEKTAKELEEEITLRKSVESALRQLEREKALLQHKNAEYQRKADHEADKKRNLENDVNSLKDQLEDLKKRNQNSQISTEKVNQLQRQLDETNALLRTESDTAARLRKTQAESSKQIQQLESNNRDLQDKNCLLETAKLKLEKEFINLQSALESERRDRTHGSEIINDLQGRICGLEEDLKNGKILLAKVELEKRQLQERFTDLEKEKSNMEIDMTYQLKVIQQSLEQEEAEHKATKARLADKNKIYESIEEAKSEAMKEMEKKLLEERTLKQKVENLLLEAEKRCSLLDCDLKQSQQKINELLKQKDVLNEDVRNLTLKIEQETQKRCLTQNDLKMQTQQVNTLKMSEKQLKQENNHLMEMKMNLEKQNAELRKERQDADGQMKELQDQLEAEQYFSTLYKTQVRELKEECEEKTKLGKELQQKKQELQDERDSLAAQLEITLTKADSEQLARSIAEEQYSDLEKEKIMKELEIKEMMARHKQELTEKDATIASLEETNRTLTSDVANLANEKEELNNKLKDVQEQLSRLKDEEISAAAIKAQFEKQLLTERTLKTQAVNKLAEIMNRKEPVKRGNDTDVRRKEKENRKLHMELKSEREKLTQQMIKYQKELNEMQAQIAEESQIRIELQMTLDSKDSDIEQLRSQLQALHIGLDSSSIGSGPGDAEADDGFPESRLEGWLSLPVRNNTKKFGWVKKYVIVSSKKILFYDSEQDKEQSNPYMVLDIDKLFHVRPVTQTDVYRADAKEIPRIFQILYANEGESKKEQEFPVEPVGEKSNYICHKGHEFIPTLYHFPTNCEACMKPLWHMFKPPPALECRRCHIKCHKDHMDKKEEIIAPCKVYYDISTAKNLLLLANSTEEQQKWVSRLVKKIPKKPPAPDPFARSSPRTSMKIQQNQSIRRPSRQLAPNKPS
UniProt O60674, whole entry, species assumed: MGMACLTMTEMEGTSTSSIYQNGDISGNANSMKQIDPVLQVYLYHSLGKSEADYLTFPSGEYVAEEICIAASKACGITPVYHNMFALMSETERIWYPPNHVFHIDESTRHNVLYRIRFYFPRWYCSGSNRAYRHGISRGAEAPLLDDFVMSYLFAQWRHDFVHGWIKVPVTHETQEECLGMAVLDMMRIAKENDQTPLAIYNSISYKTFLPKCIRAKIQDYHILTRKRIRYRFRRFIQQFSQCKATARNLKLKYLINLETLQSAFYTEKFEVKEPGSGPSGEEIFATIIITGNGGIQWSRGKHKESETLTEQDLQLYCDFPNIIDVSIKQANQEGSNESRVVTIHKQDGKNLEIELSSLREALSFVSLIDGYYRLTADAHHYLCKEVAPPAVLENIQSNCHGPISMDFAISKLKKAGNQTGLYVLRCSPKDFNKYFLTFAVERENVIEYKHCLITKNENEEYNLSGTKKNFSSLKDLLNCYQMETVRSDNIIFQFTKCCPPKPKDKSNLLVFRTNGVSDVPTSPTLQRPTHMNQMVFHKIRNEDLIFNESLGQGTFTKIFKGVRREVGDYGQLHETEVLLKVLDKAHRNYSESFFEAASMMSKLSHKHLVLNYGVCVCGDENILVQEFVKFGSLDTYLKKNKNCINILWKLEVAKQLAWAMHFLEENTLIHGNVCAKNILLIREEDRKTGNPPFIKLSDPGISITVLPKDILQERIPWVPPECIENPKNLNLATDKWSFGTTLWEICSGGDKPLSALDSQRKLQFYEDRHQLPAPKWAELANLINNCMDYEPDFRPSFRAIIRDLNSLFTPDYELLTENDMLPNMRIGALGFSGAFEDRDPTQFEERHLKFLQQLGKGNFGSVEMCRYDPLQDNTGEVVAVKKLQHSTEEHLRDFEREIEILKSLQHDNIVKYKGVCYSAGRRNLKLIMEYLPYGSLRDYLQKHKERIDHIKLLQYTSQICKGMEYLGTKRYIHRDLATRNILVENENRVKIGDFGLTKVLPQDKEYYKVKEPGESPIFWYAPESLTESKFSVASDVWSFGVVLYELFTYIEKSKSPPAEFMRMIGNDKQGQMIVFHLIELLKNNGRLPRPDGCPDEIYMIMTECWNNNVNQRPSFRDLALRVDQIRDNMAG

How the values were obtained:
ROCK2 = ROCK2 (Homo sapiens, UniProt O75116); assay: biochemical; settings: ROCK2, Table 16
JAK2 = JAK2 (Homo sapiens, UniProt O60674); assay: JAK kinase assay, JAK2 enzyme; settings: JAK2, Table 16;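 also: JAK2 kinase reaction run 75 min at room temperature, leftover ATP read by Kinase-Glo luminescence, 11-point dilution series in 2.5% DMSO, percent of inhibitor-free DMSO control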
JAK3 = biological target: T1, JAK3 (Homo sapiens, UniProt P52333); assay: JAK kinase assay, JAK3 enzyme; settings: JAK3, Table 16
T1 sequence (P52333 1-1124): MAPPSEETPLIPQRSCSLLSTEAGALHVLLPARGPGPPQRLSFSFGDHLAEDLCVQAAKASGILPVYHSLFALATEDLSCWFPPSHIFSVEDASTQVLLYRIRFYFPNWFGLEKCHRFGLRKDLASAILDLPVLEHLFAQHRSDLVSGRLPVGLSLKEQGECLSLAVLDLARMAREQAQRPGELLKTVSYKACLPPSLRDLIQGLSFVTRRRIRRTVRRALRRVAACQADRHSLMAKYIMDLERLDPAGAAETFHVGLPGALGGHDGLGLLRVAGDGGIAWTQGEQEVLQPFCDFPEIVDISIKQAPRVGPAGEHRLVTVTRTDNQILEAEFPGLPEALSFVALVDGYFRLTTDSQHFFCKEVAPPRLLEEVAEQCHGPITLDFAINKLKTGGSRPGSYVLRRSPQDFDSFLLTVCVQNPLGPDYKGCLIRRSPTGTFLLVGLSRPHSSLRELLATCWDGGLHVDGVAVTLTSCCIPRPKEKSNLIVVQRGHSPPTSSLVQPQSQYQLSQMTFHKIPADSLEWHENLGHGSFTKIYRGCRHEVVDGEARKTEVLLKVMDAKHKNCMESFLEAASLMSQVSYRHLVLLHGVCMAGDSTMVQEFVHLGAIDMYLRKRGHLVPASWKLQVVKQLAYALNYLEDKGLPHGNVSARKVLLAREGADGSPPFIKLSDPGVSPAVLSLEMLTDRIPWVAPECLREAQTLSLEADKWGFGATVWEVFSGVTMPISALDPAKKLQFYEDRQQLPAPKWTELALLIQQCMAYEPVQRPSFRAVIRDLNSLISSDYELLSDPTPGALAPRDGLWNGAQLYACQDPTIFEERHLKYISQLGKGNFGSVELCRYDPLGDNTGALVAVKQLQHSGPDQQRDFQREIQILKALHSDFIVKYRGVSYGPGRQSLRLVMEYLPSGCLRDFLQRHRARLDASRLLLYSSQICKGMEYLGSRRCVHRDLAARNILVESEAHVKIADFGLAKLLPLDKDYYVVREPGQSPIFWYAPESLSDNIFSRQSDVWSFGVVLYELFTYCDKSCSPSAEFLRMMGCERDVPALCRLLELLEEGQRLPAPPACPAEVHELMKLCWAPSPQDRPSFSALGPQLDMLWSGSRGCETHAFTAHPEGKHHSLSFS

O=C(Nc1ccc2cnccc2c1)[C@@H]1C[C@H]1c1cccc(S(=O)(=O)Nc2ccccn2)c1 [Example E279]
Ki (ROCK2): 7.5 nM
Ki (JAK2): 1150 nM
Ki (JAK3): 2500 nM
